Literature values, collected in patent US20190091218A1 (priority 2016, published 2019).

Conditions: standard 10 mg oral dose

CC(C)(O)c1ccccc1CC[C@@H](SCC1(CC(=O)O)CC1)c1cccc(/C=C/c2ccc3ccc(Cl)cc3n2)c1 [montelukast]
mean Cmax: 353 ng/mL
